Target: Dual specificity tyrosine-phosphorylation-regulated kinase 1A (Homo sapiens, UniProt Q13627)

`CCN1/C(=C/C(C)=O)Sc2ccc(OC)cc21` was tested, and the IC50 was 57.3 nM.
